The list shows a part of the results, in another mix than the full data. Some salts or complexes appear as unconnected parts, following the source record. Active and inactive are the calls of the source.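 Rule for the calls: active = inhibition above a set limit, near 3 SD of compounds lacking own fluorescence (cut at about 54% in these data); inactive = the rest.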
These compounds were tested on beta-arrestin 1 C-terminal peptide binding to AP2 beta2-adaptin appendage (human) (assay: inhibitors of beta-arrestin/AP2 binding, primary screen, biochemical, GPCR trafficking, flow cytometry (AID 504490;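 note: plate controls were DMSO wells for no effect and 5 µM unlabelled arrestin peptide for full effect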)). Conditions: FITC-arrestin peptide / GST-AP2 beads, at 10 µM, hits give high values, AP2 beta2 appendage carries R879A mutation.
`CCN(CC)CCCOC(=O)C(O)(c1ccccc1)c1ccccc1` was tested, and the inhibition was inactive: 49.4%. For `O=[N+]([O-])c1cc([N+](=O)[O-])c(Nc2cccnc2)c([N+](=O)[O-])c1`, the inhibition was inactive: 5.38%. `O=[N+]([O-])c1ccc2c(c1)C=Nc1ccccc1O2` was tested, and the inhibition was inactive: -0.52%. `Cc1cccc(C)c1OP(C)(N)=O` (stereo not given) was tested, and the inhibition was inactive: 35.2%. For `CC(C)(C)c1ccc(OP(C)(=O)Nc2ccc(SC(F)(F)F)cc2)cc1` (stereo not given), the inhibition was inactive: -1.38%. In the case of `Cc1ccc(NP(C)(=O)Oc2ccccc2)c(C)c1` (stereo not given), the inhibition is reported as inactive: 9.55%. In the case of `COc1ccccc1OP(C)(=O)Nc1ccc(C)cc1` (stereo not given), the inhibition is reported as inactive: 0.9%. In the case of `CCOC(=O)c1ccc(NP(C)(=O)Oc2ccccc2)cc1` (stereo not given), the inhibition is reported as inactive: -8.2%. With `Cc1cc(C)cc(OP(C)(N)=O)c1` (stereo not given) the inhibition was inactive: -15.1%. For `COc1ccc(OP(C)(=O)Nc2cccc(F)c2)cc1` (stereo not given), the inhibition was inactive: 5.81%. With `COc1ccccc1OP(C)(=O)Nc1cc(Cl)ccc1C` (stereo not given) the inhibition was inactive: -5.62%. For `CP(=S)(Nn1cnnc1)Oc1ccccc1` (stereo not given), the inhibition was inactive: 5.71%. With `CP(=O)(Nc1ccccc1Br)Oc1ccccc1` (stereo not given) the inhibition was inactive: 3.83%. `COc1ccccc1OP(C)(=O)Nc1ccccc1` (stereo not given) was tested, and the inhibition was inactive: 19.3%. In the case of `CP(=O)(Oc1ccccc1)OC(c1ccccc1)C(F)(F)F` (stereo not given), the inhibition is reported as inactive: 14.8%. In the case of `Cc1cccc(C)c1OP(C)(=O)Nc1ccc(SC(F)(F)F)cc1` (stereo not given), the inhibition is reported as inactive: -3.26%. `CP(=O)(Nc1ccc(SC(F)(F)F)cc1)Oc1ccc(Cl)cc1` (stereo not given) was tested, and the inhibition was inactive: 11.5%. `Cc1cc(C)cc(OP(C)(=O)Nc2ccc(SC(F)(F)F)cc2)c1` (stereo not given) was tested, and the inhibition was inactive: 16.4%. In the case of `CCc1ccc(OP(C)(=O)N2CCN(c3ccc([N+](=O)[O-])cc3)CC2)cc1` (stereo not given), the inhibition is reported as inactive: -9.92%. For `CP(=O)(NC(=O)Nc1ccccc1)Oc1ccccc1` (stereo not given), the inhibition was inactive: 6.61%. In the case of `CCOC(=O)c1ccc(NP(C)(=O)Oc2ccc(OC)cc2)cc1` (stereo not given), the inhibition is reported as inactive: -5.92%. `O=[N+]([O-])c1cc([N+](=O)[O-])c(O)c([N+](=O)[O-])c1.c1ccc(Oc2ccncc2)cc1` was tested, and the inhibition was inactive: -15.5%. In the case of `CCOP(C)(=S)SCC(=O)NC(C)C(=O)O` (stereo not given), the inhibition is reported as inactive: -1.44%. `CP(=O)(Nc1ccccn1)Oc1ccc(Cl)cc1` (stereo not given) was tested, and the inhibition was inactive: 24%. With `O=[N+]([O-])c1cc([N+](=O)[O-])c(-n2nnc3ccccc32)c([N+](=O)[O-])c1` the inhibition was inactive: 19.7%. With `O=[N+]([O-])c1cc([N+](=O)[O-])c(-c2cnn(-c3ccccc3)c2)c([N+](=O)[O-])c1` the inhibition was inactive: -8.76%. `Cc1nc2ccc3ccccc3c2s1.O=[N+]([O-])c1cc([N+](=O)[O-])c(O)c([N+](=O)[O-])c1` was tested, and the inhibition was inactive: -2.6%. In the case of `CCOC(=O)C(CC)C1=NC(C)(C)Cc2ccccc21.O=[N+]([O-])c1cc([N+](=O)[O-])c(O)c([N+](=O)[O-])c1` (stereo not given), the inhibition is reported as inactive: -8.09%. In the case of `O=[N+]([O-])c1cc([N+](=O)[O-])c(Nc2nnnn2CCO)c([N+](=O)[O-])c1`, the inhibition is reported as inactive: -4.92%. With `CC1=C2N=C(C=C3N=C(C(C)=C4[N-][C@@](C)([C@@H]5N=C1[C@](C)(CCC(=O)NC[C@@H](C)OP(=O)([O-])O[C@H]1[C@@H](O)[C@@H](n6cnc7cc(C)c(C)cc76)O[C@@H]1CO)[C@H]5CC(N)=O)[C@@](C)(CC(N)=O)[C@@H]4CCC(N)=O)[C@@](C)(CC(N)=O)[C@@H]3CCC(N)=O)C(C)(C)[C@@H]2CCC(N)=O.[C-]#N.[Co+3]` the inhibition was inactive: -4.16%. For `COc1ccccc1OP(C)(=O)Nc1c(C)cccc1C` (stereo not given), the inhibition was inactive: 12.7%. `CN1CCCCC1COC(=O)C1(O)c2ccccc2CCc2ccccc21` (stereo not given) was tested, and the inhibition was inactive: 0.75%. For `CP(=O)(Nc1ccc(SC(F)(F)F)cc1)Oc1ccccc1` (stereo not given), the inhibition was inactive: 10.6%. For `CCCOc1ccc(NP(C)(=O)Oc2ccc(Cl)cc2)cc1` (stereo not given), the inhibition was inactive: 5.41%. For `O=C(O)c1cccc(Nc2c([N+](=O)[O-])cc([N+](=O)[O-])cc2[N+](=O)[O-])c1`, the inhibition was inactive: 5.19%. With `CC1=NCCc2c1[nH]c1ccccc21.O=[N+]([O-])c1cc([N+](=O)[O-])c(O)c([N+](=O)[O-])c1` the inhibition was inactive: -6.66%. In the case of `COc1ccccc1OP(C)(=O)Nc1cccc(Br)c1` (stereo not given), the inhibition is reported as inactive: -198%. With `Cc1cc(C)cc(OP(C)(=O)Nc2ccc(C)cc2C)c1` (stereo not given) the inhibition was inactive: -2.6%. `Cc1ccc(C)c(NP(C)(=O)Oc2ccccc2)c1` (stereo not given) was tested, and the inhibition was inactive: 5%. With `CP(=O)(Nc1cccc(Br)c1)Oc1ccccc1` (stereo not given) the inhibition was inactive: 6.72%. For `Cc1cc(C)cc(OP(C)(=O)Nc2ccccn2)c1` (stereo not given), the inhibition was inactive: 30.1%. With `CP(=O)(Nc1ccccc1F)Oc1ccccc1` (stereo not given) the inhibition was inactive: -5.31%. With `CC(C)c1ccc(OP(C)(=O)Nc2ccc(SC(F)(F)F)cc2)cc1` (stereo not given) the inhibition was inactive: 7.94%. With `O=C(OC1CN2CCC1CC2)c1ccc([N+](=O)[O-])cc1` (stereo not given) the inhibition was inactive: -8.02%. With `O=C(OCCN1CCN(CCOCc2ccccc2)CC1)C(O)(c1ccccc1)c1ccccc1` the inhibition was inactive: 28.6%. `COc1ccc2c(c1O)-c1c(O)c(OC)cc3c1[C@H](C2)[N+](C)(C)CC3.O=[N+]([O-])c1cc([N+](=O)[O-])c([O-])c([N+](=O)[O-])c1[O-]` was tested, and the inhibition was inactive: 15.4%. For `CCOC(=O)c1ccc(NP(C)(=O)Oc2ccc(F)cc2)cc1` (stereo not given), the inhibition was inactive: 1.03%. With `COc1ccc(OP(C)(=O)Nc2ccc(SC(F)(F)F)cc2)cc1` (stereo not given) the inhibition was inactive: -1.12%. In the case of `Cc1c([N+](=O)[O-])cc([N+](=O)[O-])c(Br)c1[N+](=O)[O-]`, the inhibition is reported as inactive: 8.27%. In the case of `CCN(CC)CCCOC(=O)C(O)(c1ccccc1)C1CCCCC1` (stereo not given), the inhibition is reported as inactive: -1.73%. `CP(=O)(Nc1ccccc1)Oc1ccc(F)cc1` (stereo not given) was tested, and the inhibition was inactive: 7.82%. With `CCCCCOc1ccc(NP(C)(=O)Oc2ccc(Cl)cc2Cl)cc1` (stereo not given) the inhibition was inactive: -11.8%. `O=[N+]([O-])c1cc([N+](=O)[O-])c(OC2CCCCC2O)c([N+](=O)[O-])c1` (stereo not given) was tested, and the inhibition was inactive: 8.22%. `COc1ccc(OP(C)(=O)Nc2cccc(Br)c2)cc1` (stereo not given) was tested, and the inhibition was inactive: 19.9%. In the case of `CN(C)CCOC(=O)C(O)(c1ccccc1)C1CCCCC1` (stereo not given), the inhibition is reported as inactive: 23.1%.

Source: PubChem BioAssay AID504490 (NMMLSC, 2011)
